# According to patent US11673866B2, “Estrogen receptor beta ligands for the prevention and treatment of multiple sclerosis (MS) and other demyelinating, inflammatory and neurodegenerative diseases” (The Board of Trustees of the University of Illinois, priority 2018, dated 2023):
# What was measured:
# [1] = Uterus to body weight ratio in EAE mice; format: in vivo, mouse; conditions: female EAE mice
# Text: Estrogens increase uterine weight by acting primarily through ERα (Hewitt and Korach, 2003).
# callosal axons = assay: Callosal compound action potential (CAP) recordings in brain slices of EAE mice; format: in vivo, mouse; design: key: ‘+’ indicate marker was significantly (p ≤ 0.05) increased in treatment group relative to vehicle; ‘−’ indicates marker was significantly (p ≤ 0.05) decreased in treatment group relative to vehicle; ○: ‘o’ indicate marker did not change relative to vehicle; conditions: vs vehicle
# Description: Electrophysiology: To assess functional conductivity across the CC, electrophysiological recordings of compound action potentials (CAPs) were measured as previously described (Crawford et al., 2009; Crawford et al., 2010). Coronal brain slices were prepared from adult (3 to 4 month old) C57BL/6 female mice. Briefly, mice were deeply anesthetized under isoflurane and decapitated. The brain was removed and submerged in partially frozen “slushy” solution of slicing buffer containing (in mM): 87 NaCl, 75 sucrose 2.5 KCl, 0.5 CaCl2), 7 MgCl2, 1.25 NaH2PO4, 25 NaHCO3, 10 glucose, 1.3 ascorbic acid, 0.1 kynurenic acid, 2.0 pyruvate, and 3.5 MOPS, bubbled with 5% CO2+95% O2 (Lauderdale et al., 2015). Coronal slices (350 μm) were prepared using a Leica VT 1000S Vibratome (Bannockburn, Ill.) and subsequently incubated for 45 minutes at 35° C. in slicing buffer. Following incubation, slices were allowed to cool to room temperature for 15 minutes then transferred to ACSF […] containing (in mM): 125 NaCl, 2.5 KCl, 2.5 CaCl2), 1.3 MgCl2, 1.25 NaH2PO4, 26.0 NaHCO3, and 15 glucose, oxygenated with 5% CO2+95% O2. Slices were equilibrated in the standard ACSF for a minimum of 15-20 minutes prior to electrophysiological recordings. During electrophysiological recordings, slices were continuously perfused with oxygenated ACSF maintained at a flow rate of 1 mL/min. For recording CAPs, an Axon Digidata 1550 was used with a Multiclamp 700B Amplifier and PClamp 10.4 Software (Molecular Devices, Sunnyvale, Calif.). Continuous recordings for CC conduction experiments were low-pass filtered at 10 kHz and digitized at 200 kHz. All experiments were conducted at room temperature (24-26° C.). To stimulate the CC fiber tract, a concentric bipolar stimulating electrode (FHC Neural microTargeting Worldwide, Bowdoin, Me., USA) was placed approximately 1 mm away across from a recoding electrode (glass micropipette filled with ACSF) with a resistance of 1-3 MO. To elicit CAPs, an episodic stimulation protocol was created consisting of 8 consecutive sweeps, each 12 ms long, with a 5-sec delay between sweeps and an immediate stimulus (0.01 ms duration) after the start of each sweep (Crawford et al., 2009a). Stimulus intensity was adjusted manually using an ISO-Flex stimulator (A.M.P.I). […] Electrophysiology data were analyzed using Clampfit 10.4 software (Molecular Devices, Sunnyvale, Calif.) and OriginPro 2016 64 Bit (OriginLab Corporation)
# Large white matter tracts, such as the CC, are especially vulnerable to demyelination and axonal damage in MS and EAE (Ozturk et al., 2010; Mangiardi et al., 2011). […] Thus, callosal CAPs were recorded in brain slices obtained from normal, IndCl, pre-E2, IndCl-o-Cl and IndCl-o-Me-treated mice (FIGS. 8A-D). […]
# [2] = Post (therapeutic, postEAE) treatment of EAE mice
# [3] = Pre (prophylactic, preEAE) E2 treatment of EAE mice
smiles,measurement,setting,value
"C[C@]12CC[C@@H]3c4ccc(O)cc4CC[C@H]3[C@@H]1CC[C@@H]2O [E2, 170 estradiol]",uterus to body weight ratio,[1]; prophylactic E2 (preEAE),fourfold increase; also recorded: significantly increased
same,uterus to body weight ratio,[1]; therapeutic treatment (postEAE),fourfold increase; also recorded: significantly increased
same,Electrophysiology: N1 amplitude,callosal axons; [2],○
same,Electrophysiology: N2 amplitude,callosal axons; [2],○
same,Electrophysiology: N1 amplitude,callosal axons; [3],○
same,Electrophysiology: N2 amplitude,callosal axons; [3],○

# Entries after “also recorded” stand apart in the source; their conditions may differ.
